# Values of other authors, collected in patent US20100285611A1, “PHOTOBLEACHING RESISTANT PH SENSITIVE DYE NANOREACTORS WITH DUAL WAVELENGTH EMISSION” (priority 2009, published 2010).
# Details: cited from earlier work
substance,measurement,value
"albumin: acidic protein, a major component of plasma (found at 3%)",pKa,4.7
